Values of other authors as cited in patent US20240024490A1 (published 2024).
Read-outs that look alike come from different tables or passages of the source.

The chains behind the UniProt entries cited, without tags or fusion partners.
UniProt P45983, whole entry, species assumed: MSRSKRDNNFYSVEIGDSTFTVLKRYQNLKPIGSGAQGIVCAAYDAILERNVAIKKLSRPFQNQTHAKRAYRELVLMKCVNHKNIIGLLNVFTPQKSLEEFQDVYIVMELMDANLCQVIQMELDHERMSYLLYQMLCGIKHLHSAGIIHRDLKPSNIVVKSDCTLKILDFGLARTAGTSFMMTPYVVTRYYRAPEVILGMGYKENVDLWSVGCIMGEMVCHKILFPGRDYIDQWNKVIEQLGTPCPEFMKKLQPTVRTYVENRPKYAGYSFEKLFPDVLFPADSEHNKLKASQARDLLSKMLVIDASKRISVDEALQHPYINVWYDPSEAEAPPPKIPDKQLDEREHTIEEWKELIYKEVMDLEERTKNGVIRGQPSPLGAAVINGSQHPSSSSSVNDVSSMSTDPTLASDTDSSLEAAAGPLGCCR

Tests used:
[1] = system: screening panel of kinases; settings: read-out: IC50 for many kinases of a screening panel; cited from earlier work
JNK 1 = JNK 1 (Homo sapiens, UniProt P45983); settings: read-out: IC50 JNK 1; cited from earlier work
Crk-L = settings: cited from earlier work

Cc1ccc(-n2nc(C(C)(C)C)cc2NC(=O)Nc2ccc(OCCN3CCOCC3)c3ccccc23)cc1 [Doramapimod]
IC50 [1]: < 100 nM

Cn1cc2cc(Oc3ccc(NC(=O)Nc4cc(C(C)(C)C)nn4-c4ccccc4)cc3)ccc2n1 [compound 1]
IC50 (JNK 1): 880 nM

CC(=O)NC1=NN(c2ccc(Cl)c(Cl)c2)CC1C (stereo not shown) [compound 45]
Fold Increase phCRKE Vs Total Crk-L (normalised) (Crk-L; 40 min): 1x | Fold Increase phCRKE Vs Total Crk-L (normalised) (Crk-L; 180 min): 5x
